Here are results for 1 compound from ChEMBL document CHEMBL4823289, “Conformational-Analysis-Guided Discovery of 2,3-Disubstituted Pyridine IDO1 Inhibitors” (ACS Med Chem Lett, 2021).

By UniProt entry, the sequences of proteins in these tests, tags left out. Where a name states a change or a piece, a line headed by the entry shows the natural chain unless it says otherwise.
UniProt P28776: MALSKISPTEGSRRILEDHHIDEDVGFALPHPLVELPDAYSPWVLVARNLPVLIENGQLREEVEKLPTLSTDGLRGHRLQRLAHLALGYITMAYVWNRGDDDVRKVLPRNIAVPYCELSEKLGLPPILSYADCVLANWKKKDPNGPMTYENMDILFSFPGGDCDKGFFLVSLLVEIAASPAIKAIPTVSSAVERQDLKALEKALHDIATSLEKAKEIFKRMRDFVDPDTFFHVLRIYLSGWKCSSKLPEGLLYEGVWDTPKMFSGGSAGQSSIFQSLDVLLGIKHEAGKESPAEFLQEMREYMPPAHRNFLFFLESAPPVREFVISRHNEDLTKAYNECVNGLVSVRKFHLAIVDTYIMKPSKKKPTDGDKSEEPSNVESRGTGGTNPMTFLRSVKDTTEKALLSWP

Molecules are shown by their SMILES.

The experiment has as its target Indoleamine 2,3-dioxygenase 1 (Mus musculus) (UniProt P28776). The experiment is described as follows: In vivo inhibition of IDO1 in mouse xenografted with human SK-OV-3 cells assessed as reduction in tumor kynurenine AUEC at 60 mg/kg, po QD for 5 days measured up to 24 hrs after dosing relative to control. On the set-up: scale not given: the % may be the effect or the level left. The format is functional, organism-based. The conditions noted are these: time 5.0 day.

For the compound `CC[C@@H](NC(=O)c1ccc(OC)nc1)[C@H]1CC[C@@H](c2ccnc(OC)c2C(F)F)CC1`, the Activity amounted to 57%.
